Experimental data reported in patent publication EP0248972A2, “Ammoniummonofluorophosphates, process for their preparation and their use” (Benckiser-Knapsack GmbH, priority 1986, dated 1987).

Assay: Solubility in glycerol
Type: physicochemical

Question: Which “Löslichkeit in Glycerin” value does the source give for `CCCCCCCC/C=C\CCCCCCCCNCCCN` [N-Oleyl-1,3-diammoniumpropanmonofluorophosphat] here?
Answer: The value was greater than 10%.
